This is an account of results in patent publication US12558324B2, “Application of R-ketamine and salt thereof as pharmaceuticals” (National University Corporation Chiba University, priority 2013, dated 2026).

The test system of one test is NMDA receptor. The conditions noted are these: greater than R-isomer; Non Patent Literature 12; cited from earlier work.
Test [1] relates to social defeat stress mice. Put plainly: Golgi staining, spine density in brain regions of social defeat stress mice. As to conditions: 10 mg/kg i.p.; for spine density of the hippocampus CA1 region / spine density of the hippocampus CA3 region (decrease by social defeat stress) / spine density of the nucleus accumbens (increase by social defeat stress) / spine density of the striatum / spine density of the frontal cortex (mPFC) / spine density of the hippocampal dentate gyrus: Golgi staining 8 days after injection; for spine density of the frontal cortex (mPFC) / spine density of the hippocampal dentate gyrus: vs saline.

Consider `CN[C@]1(c2ccccc2Cl)CCCCC1=O.Cl` [S(+)-ketamine, S(+)-ketamine hydrochloride], for which, in the test with NMDA receptor, the “affinity for the NMDA receptor relative to R-isomer” value was “approximately 4 fold”. In addition, in test [1], the “spine density of the hippocampus CA1 region” value was “no apparent change in spine density was observed”, the “spine density of the hippocampus CA3 region (decrease by social defeat stress)” value was “significantly improved”, the “spine density of the nucleus accumbens (increase by social defeat stress)” value is “significantly improved” and the “spine density of the striatum” value is “no apparent change in spine density was observed”. In addition, in test [1], the “spine density of the frontal cortex (mPFC)” value is on record as “significantly improved the decreased density of spine” and the “spine density of the hippocampal dentate gyrus” value is recorded as “significantly improved the decreased density of spine”.
With `CN[C@@]1(c2ccccc2Cl)CCCCC1=O.Cl` [R(−)-ketamine, R(−)-ketamine hydrochloride], the “restoration of spine density in the hippocampal dentate gyrus compared to S(+)-ketamine” value in test [1] (8 days after injection) is on record as “more significant improvement in the restoration of spine density”. In test [1], the “spine density of the hippocampus CA1 region” value is “no apparent change in spine density was observed”, the “spine density of the hippocampus CA3 region (decrease by social defeat stress)” value was “significantly improved”, the “spine density of the nucleus accumbens (increase by social defeat stress)” value is “significantly improved” and the “spine density of the striatum” value is reported as “no apparent change in spine density was observed”. Also, in test [1], the “spine density of the frontal cortex (mPFC)” value was “significantly improved the decreased density of spine” and the “spine density of the hippocampal dentate gyrus” value is on record as “significantly improved the decreased density of spine”.
